Measured values from patent US20260382572A1, “TREATMENT OF FRONTOTEMPORAL DEMENTIA OR FRONTOTEMPORAL LOBAR DEMENTIA” (published 2026).
Where “and” joins values, the source holds several entries; their conditions need not be identical. Equal entries are not always repeated.

Sequences of proteins named here, by UniProt entry; tags and fusion partners are left off.
UniProt P08183, whole entry: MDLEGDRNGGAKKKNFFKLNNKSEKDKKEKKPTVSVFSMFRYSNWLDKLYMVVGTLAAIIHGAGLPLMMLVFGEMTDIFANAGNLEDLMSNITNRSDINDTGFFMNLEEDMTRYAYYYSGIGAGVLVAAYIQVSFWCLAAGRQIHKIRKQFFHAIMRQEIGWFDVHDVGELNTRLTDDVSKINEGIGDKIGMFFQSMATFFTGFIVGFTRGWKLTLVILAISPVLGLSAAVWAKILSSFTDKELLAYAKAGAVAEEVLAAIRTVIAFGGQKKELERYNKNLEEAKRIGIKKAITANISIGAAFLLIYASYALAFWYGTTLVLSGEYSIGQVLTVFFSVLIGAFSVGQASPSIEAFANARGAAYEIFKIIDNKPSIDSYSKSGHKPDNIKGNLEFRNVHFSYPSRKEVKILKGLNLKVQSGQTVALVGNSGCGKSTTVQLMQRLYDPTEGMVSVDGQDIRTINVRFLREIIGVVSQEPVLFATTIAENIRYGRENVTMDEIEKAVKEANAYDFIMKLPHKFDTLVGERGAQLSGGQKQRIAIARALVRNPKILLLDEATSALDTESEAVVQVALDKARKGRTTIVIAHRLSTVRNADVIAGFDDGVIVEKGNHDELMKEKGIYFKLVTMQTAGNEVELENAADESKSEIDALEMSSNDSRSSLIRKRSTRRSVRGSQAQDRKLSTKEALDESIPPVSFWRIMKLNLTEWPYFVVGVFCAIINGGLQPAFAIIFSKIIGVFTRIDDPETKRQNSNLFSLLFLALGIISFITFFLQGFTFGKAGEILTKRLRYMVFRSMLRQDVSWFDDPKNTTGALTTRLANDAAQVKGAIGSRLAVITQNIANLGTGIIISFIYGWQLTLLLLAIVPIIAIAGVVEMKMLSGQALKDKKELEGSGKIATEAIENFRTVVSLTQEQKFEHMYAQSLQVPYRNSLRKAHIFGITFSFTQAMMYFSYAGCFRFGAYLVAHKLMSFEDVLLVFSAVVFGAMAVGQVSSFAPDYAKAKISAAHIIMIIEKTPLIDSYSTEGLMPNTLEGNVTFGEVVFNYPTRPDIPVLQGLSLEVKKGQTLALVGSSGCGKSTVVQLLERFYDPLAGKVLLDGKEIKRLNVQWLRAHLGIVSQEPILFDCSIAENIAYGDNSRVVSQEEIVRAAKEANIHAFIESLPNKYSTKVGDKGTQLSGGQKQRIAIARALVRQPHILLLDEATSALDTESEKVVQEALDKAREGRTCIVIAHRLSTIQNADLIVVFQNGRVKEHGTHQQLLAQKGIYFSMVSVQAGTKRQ

Columns and labels:
[1] = LPS-induced sickness behaviour: body weight; conditions: 20 mg·kg^−1 i.p.; compared to LPS-vehicle treated animals
Description: (§1) FIG. 5. Sub-chronical Compound 1 administration improves behavioural parameters in LPS treated mice. Compound 1 (20 mg·kg^−1) was injected once a day via i.p. four days before the i.p. LPS (0.5 mg·kg^−1) administration, thereafter behavioural tests were conducted. (A) Mice weight change (T0 and T24: saline n=17, LPS n=17, LPS+Compound 1 n=19, T4 and T8 saline n=8, LPS n=7, LPS+Compound 1 n=8). (B) Locomotion activity measured by line crossings of an imaginary grid. (C) Scheme of NOR test. (D) Discrimination index (DI) of the mice studied: saline (n=16), LPS (n=9) and LPS+Compound 1 (n=13).
(§2) The LPS in vivo model was induced, sickness behaviour evaluated (locomotion test and novel object recognition test) and cytokines measured by qPCR as described by [Fernindez-Mendivil, Cristina et al. “Protective role of microglial HO-1 blockade in aging: Implication of iron metabolism.” Redox biology vol. 38 (2021): 101789. doi:10.1016/j.redox.2020.101789]. The panel of mouse cytokines, chemokines, and growth factors were measured by Luminex xMAP technology for multiplexed quantification at Evetechnologies (https://www.evetechnologies.com/)
(§3) Example 2.3.1. Treatment with Compound 1 reduces LPS-induced cytokine expression and release in mouse brain. […] Thereafter, behavioural, and biochemical outcomes were analysed at different time points.

[2] = biological target: P-glycoprotein efflux transporter (Homo sapiens, UniProt P08183); assay: Caco-2 efflux transporter substrate panel: P-glycoprotein (verapamil)
Description: Example 3.2. ADME-Tox: Caco-2 Efflux Transporter Substrate Panel. The permeability of Compound 1 in the Caco-2 cell line was determined in the AB and BA directions, in the absence or presence of verapamil (a Pgp-specific inhibitor) or Ko143 (a selective inhibitor of the ATP-binding cassette subfamily B, ABCB) (Eurofins Discovery).

LPS treated mice = assay: LPS-induced sickness behaviour: locomotion test; conditions: 20 mg·kg^−1 i.p.; 4 and 8 h after LPS
Description: as §1, §2, §3

[3] = Liver microsome stability, human; conditions: 1 μM, 120 min
Description: Example 3.3. Stability in mouse, dog, and human liver microsomes. […] In this line, results in two different species correlated with human microsomes. […] This correlation is widely described for different drugs in which mouse metabolism is higher due to the high blood flow and quick metabolic status of mice.

TNFα mRNA in BV2 cells = assay: TNFα mRNA in LPS-exposed BV2 cells (qRT-PCR); conditions: LPS 24 h; 10 and 30 μM
Description: FIG. 1. Compound 1 reduces the inflammatory response against LPS in vitro. (A) Nitric oxide (NO) production in BV2 cells detected by DAF 24 h after LPS exposure and normalized by cell viability measured by MTT (n=9). (B) qRT-PCR of TNFα (n=9) in BV2 cells after 24 h LPS exposure. Sulforaphane (Sfn) was used as a positive control.
Example 2.2. In vitro treatment with Compound 1 has anti-inflammatory effects in microglial derived cells.

brain microglia (Iba-1) = assay: LPS-induced microgliosis in mouse brain (Iba-1 immunofluorescence); conditions: 20 mg·kg^−1 i.p.; 4 and 24 h after LPS
Description: FIG. 4. Compound 1 reverts brain microgliosis triggered by LPS. Representative images of brain microglia 4 h and 24 h after the proinflammatory stimuli (A). Mean intensity of IBA-1 per cell 4 h (n=10) and 24 h (n=7, except n=6 LPS+Compound 1) after LPS injection (B).
Immunofluorescence labelling in in vitro and in vivo samples was performed as described in [Luengo, Enrique et al. “Implication of type 4 NADPH oxidase (NOX4) in tauopathy.” Redox biology vol. 49 (2022): 102210. doi:10.1016/j.redox.2021.102210].
Example 2.3.1. Treatment with Compound 1 reduces LPS-induced cytokine expression and release in mouse brain. Mice were treated i.p. with a daily dose of 20 mg·kg^−1 of Compound 1 for 4 consecutive days. On the last day, LPS (0.5 mg·kg^−1) was injected i.p. one h after the compound. Thereafter, behavioural, and biochemical outcomes were analysed at different time points.
Example 2.3.2. Treatment with Compound 1 reduces LPS-induced microgliosis in mouse brain. […] Microgliosis was evaluated using Iba-1 as a microglial marker in immunofluorescence experiments 4 h and 24 h after the inflammatory stimuli (LPS). The mean fluorescence intensity of Iba-1 per cell in mice treated with LPS, mainly 4 h after LPS, was almost doubled respect saline condition; this increase was restored to saline levels in mice treated with Compound 1 both at 4 and 24 h (FIG. 4).

## COc1ccc2c(c1)CC(c1c[nH]c3ccc(OC)cc13)N2 (centres unmarked)
[1]
  body weight loss: less reduction of the body weight loss
[2]
  P-glycoprotein efflux transporter substrate: not a substrate
[2]; both directions
  permeability in the presence of verapamil: not altered
LPS treated mice
  Locomotion (line crossings of an imaginary grid): improved
[3]
  stability in human liver microsomes (in words): good stability
[3]; human liver microsomes
  T1/2: 13.07 min and 13.07 ± 1.15 min
TNFα mRNA in BV2 cells
  TNF-α mRNA: reduced the proinflammatory cytokine TNF-α mRNA in a concentration-dependent manner
Brain microglia (Iba-1)
  mean fluorescence intensity of Iba-1 per cell: restored to saline levels
